From ChEMBL document CHEMBL4495564, “Identification of inhibitors of SARS-Cov2 M-Pro enzymatic activity using a small molecule repurposing screen” (2020)

Biological target: Replicase polyprotein 1ab (Severe acute respiratory syndrome coronavirus 2, UniProt P0DTD1)
Test: biochemical
Assay type: functional

Molecule `O=C1C(Cl)=C(N2CCOCC2)C(=O)N1c1ccc(Cl)c(Cl)c1` has an IC50 of 4.53 µM.
